Consider ten compounds from PubChem BioAssay AID1996.

In brackets after ≈: the same amount, converted by molar mass. Some tests of the compounds listed are not included; inactive here does not mean inactive elsewhere.

The conditions of this data set: buffer; pH 7.4; 200.0 µM.
As to `COc1ccc(C(=O)NCC2(N(C)C)CCCCC2)cc1`, the solubility (kinetic) (as a rule, the concentration staying in solution when a stock, usually in DMSO, is diluted into the medium) is > 43.6 µg/mL.
In the case of `COc1ccc(Cl)cc1C(=O)NCC1(N(C)C)CCCCC1`, the solubility (kinetic) came out at 46.4 µg/mL (≈ 143 µM).
Compound `CN(C)C1(CNC(=O)c2ccc(Br)cc2)CCCCC1` came in with a solubility (kinetic) of 42.8 µg/mL (≈ 126 µM).
For `CC(C)Oc1ccc(C(=O)NCC2(N(C)C)CCCCC2)cc1`, the solubility (kinetic) is > 47.8 µg/mL.
Consider `CN(C)c1ccc(C(=O)NCC2(N(C)C)CCCCC2)cc1`, for which the kinetic solubility was > 45.5 µg/mL.
In the case of `COc1cccc(C(=O)NCC2(N3CCCCC3)CCCCC2)c1`, the solubility (kinetic) was > 49.6 µg/mL.
For `COc1cc(SC)ccc1C(=O)NCC1(N(C)C)CCCCC1`, the solubility (kinetic) was > 50.5 µg/mL.
`Cc1ccccc1C(=O)NCC1(N2CCCCC2)CCCCC1`: the kinetic solubility was > 47.2 µg/mL.
For `Cc1ccc(C(=O)NCC2(N3CCCCC3)CCCCC2)cc1`, the kinetic solubility is > 47.2 µg/mL.
For `O=C(NCC1(N2CCCCC2)CCCCC1)c1cccc(Cl)c1`, the kinetic solubility is > 50.2 µg/mL.
